Where “and” joins values, the source holds several entries; their conditions need not be identical. Equal values may be shown once. Read-outs that look alike come from different tables or passages of the source.
Tested on: male Sprague-Dawley rats

## CN(C)[C@]1(c2ccccc2)CC[C@]2(CC1)OCCc1c3cc(F)ccc3[nH]c12
30 min after i.v. administration; n = 10; part a): second ingredient = (S)-duloxetine hydrochloride, doses: first (hemicitrate) 0.0316 μg/kg, second 0.100 mg/kg, combination 0.0316 μg/kg + 0.100 mg/kg (ratio 1:3,164)
  % MPE (Maximum possible effect), withdrawal threshold of the ipsi-lateral hind paw, Mean SEM: 21.0 % MPE and 21.0 ± 12.5 % MPE
30 min after i.v. administration; n = 10; part b): second ingredient = reboxetine mesylate, doses: first (hemicitrate) 0.0316 μg/kg, second 0.316 mg/kg, combination 0.0316 μg/kg + 0.316 mg/kg (ratio 1:10,000)
  % MPE (Maximum possible effect), withdrawal threshold of the ipsi-lateral hind paw, Mean SEM: 20.9 % MPE and 20.9 ± 12.5 % MPE
60 min after i.v. administration; n = 10; part a): second ingredient = (S)-duloxetine hydrochloride, doses: first 0.0316 μg/kg, second 0.100 mg/kg, combination 0.0316 μg/kg + 0.100 mg/kg
  % MPE (Maximum possible effect), withdrawal threshold of the ipsi-lateral hind paw, Mean SEM: 8.4 ± 10.9 % MPE
60 min after i.v. administration; n = 10; part b): second ingredient = reboxetine mesylate, doses: first 0.0316 μg/kg, second 0.316 mg/kg, combination 0.0316 μg/kg + 0.316 mg/kg
  % MPE (Maximum possible effect), withdrawal threshold of the ipsi-lateral hind paw, Mean SEM: 8.4 ± 10.8 % MPE
180 min after i.v. administration; n = 10; part a): second ingredient = (S)-duloxetine hydrochloride, doses: first 0.0316 μg/kg, second 0.100 mg/kg, combination 0.0316 μg/kg + 0.100 mg/kg
  % MPE (Maximum possible effect), withdrawal threshold of the ipsi-lateral hind paw, Mean SEM: −1.4 ± 6.1 % MPE
180 min after i.v. administration; n = 10; part b): second ingredient = reboxetine mesylate, doses: first 0.0316 μg/kg, second 0.316 mg/kg, combination 0.0316 μg/kg + 0.316 mg/kg
  % MPE (Maximum possible effect), withdrawal threshold of the ipsi-lateral hind paw, Mean SEM: −1.4 ± 6.1 % MPE
